Measured values reported in patent US20090275653A1, “POLYMORPHIC FORMS OF […]” (priority 2005, published 2009).

Experiments:
[1] = Effect of heating on polymorph form; assay type: physicochemical
Protocol: (§1) X-Ray powder diffraction data were obtained by method known in the art using a SCINTAG powder X-Ray diffractometer model X'TRA equipped with a solid state detector. Copper radiation of 1.5418 Å was used. A round aluminum sample holder with round zero background quartz plate, with a cavity of 25(diameter)*0.5(depth) mm was used.
The heated sample was analyzed by XRD. Form A1 was obtained.
Various polymorph forms and mixtures thereof were heated. The heating conditions and resulting polymorph forms are described in table 17 below: […]

[2] = Hygroscopicity study: exposure to 0-100% relative humidity at room temperature (Karl Fischer, TGA, crystal form by XRD); assay type: physicochemical
Source text: Form E was placed for 1 week under 0-100% relative humidity at room temperature. Table 1 summarizes the results:
Form F was placed for 14 days under 0-100% relative humidity at room temperature. Table 2 summarizes the results:
Form H was placed for 14 days under 0-100% relative humidity at room temperature. Table 3 summarizes the results:
Form J1 was placed for 9 days under 0-100% relative humidity at room temperature. Table 4 summarizes the results:
Table 5 summarizes the results:
as §1
TGA analysis was performed using a Mettler M3 meter. The weight of the samples was about 10 mg. The samples were scanned at a rate of 10° C./min from 25° C. to 200° C. The oven was constantly purged with nitrogen gas at a flow rate of 40 ml/min. Standard 70 μl alumina crucibles covered by lids with 1 hole were used.
The water content of ladostigil tartrate was measured by methods known in the art, such Karl Fischer analysis.
Crystal form was determined after equilibration of ladostigil tartrate form A for 10 days at various relative humidities at room temperature.
Form A1 was exposed at various humidity conditions at room temperature for 13 days.
Ladostigil tartrate form A1 was exposed to various humidity conditions at room temperature for 14 days. TGA was performed, and the crystal form was analyzed.
A mixture of ladostigil tartrate form A1 and E, containing primarily form A1, was exposed at various humidity conditions at room temperature for 14 days.
Form E was placed for 7 days under 0-100% relative humidity at room temperature. Table 12 summarizes the results:
Form F was placed for 14 days under 0-100% relative humidity at room temperature. Table 14 summarizes the results:
Ladostigil tartrate Form H was exposed for 14 days under 0-100% relative humidity at room temperature. Table 15 summarizes the results:
Crystal ladostigil tartrate Form J1 was placed for 9 days under 0-100% relative humidity at room temperature.

[3] = 0% RH, 8 days, room temperature
[4] = 20% RH, 8 days, room temperature
[5] = 40% RH, 8 days, room temperature
[6] = 60% RH, 8 days, room temperature
[7] = 80% RH, 8 days, room temperature
[8] = 100% RH, 8 days, room temperature
[9] = As is (before humidity exposure)

Substance: carbamic acid, ethylmethyl-, (3R)-2,3-dihydro-3-(2-propynylamino)-1H-inden-5-yl ester, (2R,3R)-2,3-dihydroxybutanedioate (2:1) [Purely Amorphous Form]
- Resulting form after heating/drying ([1]; 80° C. in conventional oven, 2 hours): mixtures of Form A1 and A
- Form obtained after heating (XRD) ([1]; heated to 80° C. for 2 hours (Example 41)): Form A1
- Crystal Form (resulting form) [2, 3]: Amorphous
- Loss on Dry by TGA [2, 3]: 0.5%
- Crystal Form (resulting form) ([2]; 0% RH, 8 days, room temperature, listed as Purely Amorphous form): Purely Amorphous
- Crystal Form (resulting form) [2, 4]: Amorphous
- Loss on Dry by TGA [2, 4]: 0.8%
- Crystal Form (resulting form) ([2]; 20% RH, 8 days, room temperature, listed as Purely Amorphous form): Purely Amorphous
- Crystal Form (resulting form) [2, 5]: Amorphous
- Loss on Dry by TGA [2, 5]: 1.2%
- Crystal Form (resulting form) ([2]; 40% RH, 8 days, room temperature, listed as Purely Amorphous form): Purely Amorphous
- Crystal Form (resulting form) [2, 6]: Amorphous
- Loss on Dry by TGA [2, 6]: 2.2%
- Crystal Form (resulting form) ([2]; 60% RH, 8 days, room temperature, listed as Purely Amorphous form): Purely Amorphous >> A1
- Crystal Form (resulting form) ([2]; 60% RH, 8 days, room temperature, listed as purely amorphous form): traces of form A1
- Crystal Form (resulting form) [2, 7]: Form A1
- Loss on Dry by TGA [2, 7]: 0.3%
- Crystal Form (resulting form) ([2]; 80% RH, 8 days, room temperature, listed as purely amorphous form): form A1
- Crystal Form (resulting form) [2, 8]: Form A
- Loss on Dry by TGA [2, 8]: 0.4%
- Crystal Form (resulting form) ([2]; 100% RH, 8 days, room temperature, listed as purely amorphous form): form A
- Relative humidity range in which the form is stable ([2]; 8 days, room temperature, listed as amorphous Form): 0-60 % RH
- Relative humidity range in which the form is stable ([2]; 8 days, room temperature, listed as purely amorphous form): 0-40 % RH
- Crystal Form [2, 9]: Amorphous
- Loss on Dry by TGA [2, 9]: 2.2%
- Water content by Karl Fisher [2, 9]: 2.2%
